Measurements reported in US12559509B1, “Citrate coordination complex of an orally-delivered beta-lactamase inhibitor and uses thereof” (priority 2023, dated 2026).

Experiment: Chemical stability of drug substance controls and binary blend, HPLC purity
Type: physicochemical
Settings: in binary Blend, 40° C. Storage, 5 weeks
Procedure: Chemical stability of the binary blend was confirmed by monitoring HPLC purity (% peak area) of each drug substance and a binary blend that were put on stability at 25° C. and 40° C.

HPLC purity (% peak area): 98.2%
SMILES: Nc1nc(/C(=C/CC(=O)O)C(=O)N[C@@H]2C(=O)N3C(C(=O)O)=CCS[C@H]23)cs1 [Ceftibuten dihydrate, reference compound]
